The source of these data is patent publication US20160159879A1 (UNIVERSITY OF NORTH CAROLINA AT CHAPEL HILL, published 2016).

For this series, the target named is Aprotinin (UniProt P00974).

Consider Trypsin, for which the “cleavage of the fluorogenic substrate BGAR-MCA by trypsin” value was 2 U/ml aprotinin which inhibited trypsin activity by ˜100%.
